These are literature values, as cited in patent US20090012115A1, “USE OF TP MODULATORS FOR THE TREATMENT OF CARDIOVASCULAR DISORDERS IN ASPIRIN SENSITIVE AND OTHER POPULATIONS” (Portola Pharmaceuticals, Inc., priority 2007, published 2009).

Chains of the proteins cited; added tags and fusions are not shown. Residues count along the entry.
UniProt P23219, 24-599: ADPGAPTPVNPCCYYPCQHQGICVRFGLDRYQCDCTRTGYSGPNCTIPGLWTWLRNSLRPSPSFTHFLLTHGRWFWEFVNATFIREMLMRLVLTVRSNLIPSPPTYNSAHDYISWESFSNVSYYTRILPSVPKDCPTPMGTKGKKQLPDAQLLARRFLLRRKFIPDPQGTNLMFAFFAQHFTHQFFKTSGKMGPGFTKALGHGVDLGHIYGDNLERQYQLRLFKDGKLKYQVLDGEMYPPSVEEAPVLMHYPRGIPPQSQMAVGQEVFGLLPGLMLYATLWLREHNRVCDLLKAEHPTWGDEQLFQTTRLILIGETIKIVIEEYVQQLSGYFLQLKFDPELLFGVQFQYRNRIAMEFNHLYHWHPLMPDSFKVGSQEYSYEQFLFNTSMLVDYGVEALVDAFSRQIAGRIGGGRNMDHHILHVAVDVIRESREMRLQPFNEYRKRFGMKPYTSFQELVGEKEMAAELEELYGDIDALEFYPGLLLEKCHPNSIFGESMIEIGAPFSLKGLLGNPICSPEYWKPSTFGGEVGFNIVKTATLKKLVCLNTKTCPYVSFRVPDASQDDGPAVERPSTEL

The conditions of data set [1]: human circulation; cited from earlier work.
The target of another data set is COX-1 (Homo sapiens, UniProt P23219). The note with it: cited from earlier work.

In general, half-life refers to how long it takes for the measured level to halve. In the case of ortho-acetylsalicylic acid [aspirin], the half-life in data set [1] was about 20 min. Moreover, at COX-1, the “selectivity toward COX-1 than COX-2” value was “approximately 100 fold”.
